The list shows a part of the results, in another mix than the full data. Some structures show a salt or complex split into parts, the way the source records it. Activity calls are given as the source filed them.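 How the source made its calls: active means lowest replicate activation of at least 40%, so every replicate reaches that level; inactive means the rest.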

This assay is described as follows: primary screen for activators of insulin secretion dependent on glucose, INS-1E cells, GLuc reporter luminescence (AID 743287).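 Further: 0% = median of neutral control wells and 100% = median of IBMX positive control wells.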 The conditions noted are these: INS-1E GLuc reporter insulin secretion, 2-3 h, at 16.6 µM, stronger effect = higher value.
Take `COc1ccccc1-c1ccccn1.O=[N+]([O-])c1cc([N+](=O)[O-])c(O)c([N+](=O)[O-])c1`: the activation is inactive: -7.1%. For `CCN(CC)CCCOC(=O)C(O)(c1ccccc1)c1ccccc1` the value was inactive: 7.72%. In the case of `CCOC(=O)c1ccc(NP(C)(=O)Oc2ccccc2)cc1` (stereo not given), the activation was inactive: 1.14%. For `COc1ccccc1OP(C)(=O)Nc1cc(Cl)ccc1C` (stereo not given) the value was inactive: 7.26%; for `O=[N+]([O-])c1cc([N+](=O)[O-])c(Nc2cccnc2)c([N+](=O)[O-])c1`, inactive: 13.4%; for `Cc1cccc(C)c1OP(C)(N)=O` (stereo not given), inactive: 3.31%. For `O=[N+]([O-])c1ccc2c(c1)C=Nc1ccccc1O2` the value was inactive: 1.93%; for `COc1ccccc1OP(C)(=O)Nc1ccccc1` (stereo not given), inactive: 0.816%.

Take `CP(=O)(Nc1ccccc1Br)Oc1ccccc1` (stereo not given): the activation is inactive: 20.9%.

Turning to `CCOC(=O)c1ccc(NP(C)(=O)Oc2ccc(OC)cc2)cc1` (stereo not given), the activation was inactive: -24.3%. On to `CP(=O)(Nc1ccccn1)Oc1ccc(Cl)cc1` (stereo not given), for which the activation was inactive: 8.82%. The result for `Cc1cccc(C)c1OP(C)(=O)Nc1ccc(SC(F)(F)F)cc1` (stereo not given) reads inactive: -24.8%; that for `CP(=O)(Nc1ccc(SC(F)(F)F)cc1)Oc1ccc(Cl)cc1` (stereo not given), inactive: -22.1%.

Consider `CP(=O)(Oc1ccccc1)OC(c1ccccc1)C(F)(F)F` (stereo not given), for which the activation was inactive: 6.98%.

`CP(=O)(NC(=O)Nc1ccccc1)Oc1ccccc1` (stereo not given): the activation is inactive: 9.69%.

With `Cc1cc(C)cc(OP(C)(=O)Nc2ccc(SC(F)(F)F)cc2)c1` (stereo not given), the activation was inactive: -15.6%.

With `O=[N+]([O-])c1cc([N+](=O)[O-])c(-n2nnc3ccccc32)c([N+](=O)[O-])c1`, the activation is inactive: -21.9%.

Consider `CN(Cc1cccnc1)C(=O)COc1ccc(Cl)c(Cl)c1.O=[N+]([O-])c1cc([N+](=O)[O-])c(O)c([N+](=O)[O-])c1`, for which the activation was inactive: -2.7%. For `CN1CCCCC1COC(=O)C1(O)c2ccccc2CCc2ccccc21` (stereo not given) the value was inactive: -5.94%; for `CCCOc1ccc(NP(C)(=O)Oc2ccc(Cl)cc2)cc1` (stereo not given), inactive: -36.2%; for `CP(=O)(Nc1ccc(SC(F)(F)F)cc1)Oc1ccccc1` (stereo not given), inactive: -34.3%. For `COc1ccc(-c2ccccn2)cc1.O=[N+]([O-])c1cc([N+](=O)[O-])c(O)c([N+](=O)[O-])c1` the value was inactive: 2.74%; for `O=[N+]([O-])c1cc([N+](=O)[O-])c(Nc2nnnn2CCO)c([N+](=O)[O-])c1`, inactive: -5.56%; for `CCOC(=O)C(CC)C1=NC(C)(C)Cc2ccccc21.O=[N+]([O-])c1cc([N+](=O)[O-])c(O)c([N+](=O)[O-])c1` (stereo not given), inactive: 14.7%. For `CC1=NCCc2c1[nH]c1ccccc21.O=[N+]([O-])c1cc([N+](=O)[O-])c(O)c([N+](=O)[O-])c1` the value was inactive: 19.1%; for `O=C(O)c1cccc(Nc2c([N+](=O)[O-])cc([N+](=O)[O-])cc2[N+](=O)[O-])c1`, inactive: -29.5%.

As for `Cc1cc(C)cc(OP(C)(=O)Nc2ccccn2)c1` (stereo not given), the activation was inactive: 20%. On to `CP(=O)(Nc1cccc(Br)c1)Oc1ccccc1` (stereo not given), for which the activation was inactive: -14%.

With `COc1ccccc1OP(C)(=O)Nc1cccc(Br)c1` (stereo not given), the activation was inactive: 1.58%. For `Cc1cc(C)cc(OP(C)(=O)Nc2ccc(C)cc2C)c1` (stereo not given) the value was inactive: 11.3%; for `CCOC(=O)c1ccc(NP(C)(=O)Oc2cc(C)cc(C)c2)cc1` (stereo not given), inactive: -31.7%.

Regarding `O=C(OCCN1CCN(CCOCc2ccccc2)CC1)C(O)(c1ccccc1)c1ccccc1`, the activation is inactive: -14.2%. The result for `O=C(OC1CN2CCC1CC2)c1ccc([N+](=O)[O-])cc1` (stereo not given) reads inactive: 19.9%; that for `COc1ccc2c(c1O)-c1c(O)c(OC)cc3c1[C@H](C2)[N+](C)(C)CC3.O=[N+]([O-])c1cc([N+](=O)[O-])c([O-])c([N+](=O)[O-])c1[O-]`, inactive: -0.797%; that for `O=[N+]([O-])c1cc([N+](=O)[O-])c(Nc2ccc(Cl)cc2)c([N+](=O)[O-])c1`, inactive: -40.4%. For `CC(C)c1ccc(OP(C)(=O)Nc2ccc(SC(F)(F)F)cc2)cc1` (stereo not given) the value was inactive: -22.4%; for `CP(=O)(Nc1ccccc1F)Oc1ccccc1` (stereo not given), inactive: 5.6%; for `CCN(CC)CCCOC(=O)C(O)(c1ccccc1)C1CCCCC1` (stereo not given), inactive: 26.5%. For `Cc1c([N+](=O)[O-])cc([N+](=O)[O-])c(Br)c1[N+](=O)[O-]` the value was inactive: -0.289%; for `O=[N+]([O-])c1cc([N+](=O)[O-])c(OC2CCCCC2O)c([N+](=O)[O-])c1` (stereo not given), inactive: -7.86%. Consider `CCCCCOc1ccc(NP(C)(=O)Oc2ccc(Cl)cc2Cl)cc1` (stereo not given), for which the activation is inactive: -3.62%. As for `CCN(CC)CCCNc1ccccc1[N+](=O)[O-].O=[N+]([O-])c1cc([N+](=O)[O-])c(O)c([N+](=O)[O-])c1`, the activation was inactive: 22.3%.

Take `COc1ccc(OP(C)(=O)Nc2ccc(SC(F)(F)F)cc2)cc1` (stereo not given): the activation is inactive: -3.41%.

As for `CCOC(=O)c1ccc(NP(C)(=O)Oc2ccc(F)cc2)cc1` (stereo not given), the activation is inactive: 1.58%. The result for `O=[N+]([O-])c1cc([N+](=O)[O-])c(NCC2CCS(=O)(=O)C2)c([N+](=O)[O-])c1` (stereo not given) reads inactive: -15.1%; that for `Cc1cc(-c2cccc3ccccc23)c(C)cn1.O=[N+]([O-])c1cc([N+](=O)[O-])c(O)c([N+](=O)[O-])c1`, inactive: 17.7%; that for `O=[N+]([O-])c1ccc(OP2(=O)COCCO2)cc1` (stereo not given), inactive: -2.6%. The result for `Cc1c(C(c2ccc3c(c2)OCO3)c2c(C)n(C)n(-c3ccccc3)c2=O)c(=O)n(-c2ccccc2)n1C.O=[N+]([O-])c1cc([N+](=O)[O-])c(O)c([N+](=O)[O-])c1` reads inactive: 4.17%; that for `COc1ccc(NP(C)(=O)Oc2ccccc2OC)cc1` (stereo not given), inactive: 1.86%.

Turning to `O=[N+]([O-])c1cc([N+](=O)[O-])c(C(F)(F)F)c([N+](=O)[O-])c1O`, the activation is inactive: -1.25%.

`Cc1ccccc1NP(C)(=O)Nc1ccccc1C`: the activation was inactive: 10.9%.

On to `CP(=O)(Nc1ccc(SC(F)(F)F)cc1)Oc1ccc(F)cc1` (stereo not given), for which the activation is inactive: -4.52%. For `CCOP(=O)(CC)OCC` the value was inactive: 9.34%; for `COc1ccccc1OP(C)(=O)Nc1ccccc1Br` (stereo not given), inactive: 12.5%. Regarding `CC(C)(C)c1ccc(OP(C)(=O)O)cc1`, the activation is inactive: 15.1%. The result for `CN(C)C(=O)c1c([N+](=O)[O-])cc([N+](=O)[O-])cc1[N+](=O)[O-]` reads inactive: 4.96%; that for `COc1ccc(OP(C)(=O)Nc2ccc(Br)cc2)cc1` (stereo not given), inactive: -11.1%. The result for `CCc1ccc(OP(C)(=O)Nc2cccnc2)cc1` (stereo not given) reads inactive: -1.68%; that for `O=C(OCCCN1CCCC1)C(O)(c1ccccc1)C1CCCCC1` (stereo not given), inactive: -11.3%; that for `CP(=O)(OC12CC3CC(CC(C3)C1)C2)OC12CC3CC(CC(C3)C1)C2`, inactive: 6.37%.

As to `CCOC(=O)c1ccc(NP(C)(=O)Oc2ccc(Cl)cc2)cc1` (stereo not given), the activation was inactive: -19.5%. The result for `CP(=O)(Nc1ccc(Cl)cc1Cl)Oc1ccccc1` (stereo not given) reads inactive: -6.44%; that for `CCCCCCCCCCCCCCCC1C[N+](C)(C)CCOP(C)(=O)O1` (stereo not given), active: 103%; that for `CP(=O)(OCCOc1ccccc1)OCCOc1ccccc1`, inactive: 8.7%. The result for `O=C1C(O)=C([N+](=O)[O-])C(=O)C(O)=C1[N+](=O)[O-]` reads inactive: 29.6%.

For `Cc1cc(C)cc(OP(C)(=O)Nc2cccc(C(F)(F)F)c2)c1` (stereo not given), the activation is inactive: -6.97%. The result for `COc1ccc(OP(C)(=O)Nc2ccccc2Br)cc1` (stereo not given) reads inactive: 6.52%. The result for `O=[N+]([O-])c1cc([N+](=O)[O-])c(Nc2ccccn2)c([N+](=O)[O-])c1` reads inactive: -2.19%; that for `COc1ccccc1OP(C)(=O)Nc1ccc(Br)cc1` (stereo not given), inactive: 0.435%; that for `COc1ccc(OP(C)(=O)Nc2ccccn2)cc1` (stereo not given), inactive: -14.3%.

For the origin of these results see PubChem BioAssay AID743287 (Broad Institute, 2014).
